# Screening data (PubChem)
# Nrf2 ARE act – activates Nrf2 signaling. AREc32 ARE-luciferase reporter (MCF7-derived line), luminescence, 24 h. Potency, µM (highest dose often 46.1 µM), for the others: top-dose activation, usual class: activators. 0.31% of 410,000 active. AID 624171; note: potency is the fitted concentration of half-maximal effect; % of control where 0% means no effect; nearly all actives have a fitted effect of over 65% in size
#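 Nrf2 activation is followed as ARE-luciferase induction in the AREc32 line after one day of compound treatment; luminescence is read with Steady-Glo.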
# GRP78 ERSR act – induces the endoplasmic reticulum stress response in human glioma cells | AID 602332 | U87-MG GRP78 promoter luciferase reporter, 16 h | 0.02% of 420,000 active | Potency, µM, for the others: at the top dose activation, usual class: activators; note: potency is the fitted concentration of half-maximal effect; series mostly up to about 76 µM; % of control where 0% means no effect; nearly all actives have a fitted effect of over 35% in size
#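 ERSR induction read as luciferase luminescence (Bright-Glo, 10 min at room temperature) in stably transfected human U87-MG glioma cells exposed to compounds for 16 h, using GRP78 as sensor.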
# A549 tox-1 – kills or reduces viability of A549 cells in Nrf2 counter-screen; A549 ARE-Fluc cells, CellTiter-Fluor viability, 18-24 h; Potency, µM (titrated, usually from 46 µM), without a hit: at the top dose activity change, negative = cytotoxicity, hits mostly inhibitors; 0.16% of 390,000 active; AID 504648; note: potency is the fitted concentration of half-maximal effect; % is set by controls: 0 for no effect and ±100 for the full control effect
#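 A549 ARE_Fluc cells in 5% FBS OPTI-MEM were exposed to compounds in concentration-response for 18-24 h at 37 deg C. Viability was read by CellTiter-Fluor fluorescence (Ex 405/Em 525) after 30 min, before the luciferase read.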
# Nrf2 block – Nrf2 pathway inhibition. 2.1% of 360,000 active. Potency, µM (top dose mostly 46 µM), without a hit: top-dose activity change, negative = inhibition, usual class: inhibitors. AID 504444. A549 ARE-Fluc reporter, luciferase luminescence, 18-24 h; note: potency is the fitted concentration of half-maximal effect; % is set by controls: 0 for no effect and ±100 for the full control effect; nearly all actives have a fitted effect of over 60% in size
#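 In this cell-based qHTS, ARE-driven firefly luciferase in A549 cells reports Nrf2 activity; the luminescent signal after BugLite lysis is the measured value, with a prior CellTiter-Fluor read for cell health.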
# miR-21 reporter – raises the signal of a miR-21 reporter. HeLa miR-21 FLuc reporter, luciferase, 48 h. 340,000 tested, under 10 active. Potency, µM (highest dose often 38.3 µM), for the others: at the highest dose reporter change, positive = more light; active = well fitted rising curve with a large enough effect; inconclusive = small, poorly fitted or top-dose-only effect; inactive = no such curve, though single readings can be large or run the other way;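 note: % of control where 0% means no effect; miR-21 action dims this reporter so a rising signal means less miR-21 action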
#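 HeLa cells endogenously expressing miR-21, stably carrying CMV-driven firefly luciferase with a downstream miR-21 binding site, 2000 cells/well. Titrations up to approximately 40 uM, 48 hours; luciferase luminescence read.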
# Mito fusion yeast – mitochondrial division inhibition or fusion activation | S. cerevisiae fusion-defective mutant growth rescue, CellTiterGlo 48 h | Potency, µM (top dose mostly 46.1 µM), without a hit: at the top dose growth rescue (activation), usual class: activators | 0.23% of 320,000 active | AID 485298; note: potency is the fitted concentration of half-maximal effect; % of control where 0% means no effect; nearly all actives have a fitted effect of over 45% in size
#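 S. cerevisiae fusion-defective temperature-sensitive mutants (e.g. fzo1-1, mgm1-5) grown 48 h at 37C in YPEG (ethanol/glycerol non-fermentable) medium with 23 nl compound per well; growth rescue read as CellTiterGlo luminescence.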
# FLuc enzyme inh – firefly luciferase inhibition, Nrf2 hit validation; shares compounds with Nrf2 block; purified firefly luciferase, luminescence inhibition; 4% of 1,400 active; Potency, µM (highest dose often 57.5 µM), without a hit: top-dose activity change, negative = inhibition, actives largely listed as inhibitors; AID 720522; note: potency is the fitted concentration of half-maximal effect; % is set by controls: 0 for no effect and ±100 for the full control effect; nearly all actives have a fitted effect of over 65% in size
# A549 tox-2 – A549 cytotoxicity, Nrf2 inhibitor counterscreen; 2% of 1,400 active; A549 ARE-Fluc cells, cytotoxicity counterscreen; shares compounds with Nrf2 block; Potency, µM (titrated, usually from 46.1 µM), for inactives: at the highest dose activity change, negative = cytotoxicity, usual class: inhibitors; AID 720523;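 note: potency is the fitted concentration of half-maximal effect; cells exposed to compounds for 18 to 24 hours; % is set by controls: 0 for no effect and ±100 for the full control effect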
# Nrf2 ARE inh – Nrf2 inhibition confirmed, A549 ARE-luciferase | shares compounds with Nrf2 block | A549 ARE-firefly luciferase reporter, luminescence | Potency, µM (top dose mostly 46.1 µM), for inactives: at the top dose activity change, negative = inhibition, usual class: inhibitors | 74% of 1,400 active; note: potency is the fitted concentration of half-maximal effect; % is set by controls: 0 for no effect and ±100 for the full control effect; nearly all actives have a fitted effect of over 65% in size
# Starred values were filed as active, the others as inactive; ? = inconclusive; nt = no result shown. Shown are actives, neighbours in structure and some others; about 2.3% of the full set was active somewhere. Unless noted, calls come from the whole dose curve; as a rule, active = well fitted curve in the direction sought with a large enough effect; inconclusive = small, poorly fitted or top-dose-only effect, or another doubt; inactive = no such curve, though single readings can be large; an effect the other way counts as inactive or inconclusive.
# Assay codes: A = Nrf2 ARE act; B = GRP78 ERSR act; C = A549 tox-1; D = Nrf2 block; E = miR-21 reporter; F = Mito fusion yeast; G = FLuc enzyme inh; H = A549 tox-2; I = Nrf2 ARE inh
Compound: COC(C(=O)C(O)C(C)O)C1Cc2cc3cc(OC4CC(OC5CC(O)C(OC)C(C)O5)C(OC(C)=O)C(C)O4)c(C)c(O)c3c(O)c2C(=O)C1OC1CC(OC2CC(OC3CC(C)(O)C(OC(C)=O)C(C)O3)C(O)C(C)O2)C(O)C(C)O1 (stereo not given)
  A: nt | B: -5% | C: nt | D: nt | E: nt | F: nt | G: nt | H: nt | I: nt
Compound: CC(C)[C@H]1C(=O)O[C@@H]2CCN3CC=C(COC(=O)[C@](C)(O)[C@]1(C)O)[C@H]23
  A: 0% | B: -4% | C: 12% | D: -9% | E: -8% | F: 1% | G: nt | H: nt | I: nt
Compound: NNC(=O)c1nc[nH]c1C(=O)Nc1ccc(Cl)cc1C(=O)c1ccccc1
  A: 0% | B: 1% | C: 13% | D: 19% | E: -2% | F: 0% | G: nt | H: nt | I: nt
Compound: CC(C)(C)OC(=O)NCc1ccc(CNC(=O)c2nc[nH]c2C(=O)NCc2ccc(CNC(=O)OC(C)(C)C)cc2)cc1
  A: 5% | B: -4% | C: 3% | D: 6.5µM* | E: nt | F: nt | G: 3% | H: -13% | I: 13µM*
Compound: C=C1[C@@H](C)[C@H]2[C@H](Cc3ccccc3)NC(=O)[C@]23[C@H](OC(C)=O)/C=C/[C@](C)(O)C(=O)[C@@H](C)C/C=C/[C@H]3[C@@H]1O
  A: nt | B: -4% | C: nt | D: nt | E: nt | F: nt | G: nt | H: nt | I: nt
Compound: COc1ccc(CN2CCN(C(=O)Cn3c(=O)oc4cc(Cl)ccc43)CC2)c(OC)c1OC
  A: 5% | B: -6% | C: ? | D: 2.9µM* | E: 15% | F: -2% | G: -1% | H: -9% | I: ?
Compound: CC(=NNC(=S)N1CC2CCC(CC2)C1)c1nccs1
  A: 6% | B: 16% | C: ? | D: 1.5µM* | E: nt | F: nt | G: 19µM* | H: ? | I: 2.9µM*
Compound: CCCCn1c(=O)c(C(=O)Nc2nc3ccccc3[nH]2)c(O)c2ccccc21
  A: nt | B: nt | C: nt | D: nt | E: -14% | F: 1% | G: nt | H: nt | I: nt
Compound: CCCCCn1c(=O)c(C(=O)Nc2nc3ccccc3[nH]2)c(O)c2ccccc21
  A: 0% | B: -2% | C: ? | D: 2.6µM* | E: -8% | F: -8% | G: 3% | H: ? | I: 6.5µM*
Compound: CCOC(=O)C1(c2ccccc2)CCCN(C)CC1 (stereo not given)
  A: nt | B: -2% | C: nt | D: nt | E: nt | F: nt | G: nt | H: nt | I: nt
Compound: O=C(C[n+]1ccn(CCCNP2(=O)C=C(c3ccccc3)OC(c3ccccc3)=C2)c1)c1ccccc1
  A: 0% | B: -3% | C: 19% | D: -13% | E: -1% | F: 4% | G: nt | H: nt | I: nt
Compound: CO[C@@H](COC(N)=O)C1=C(N2CC2)C(=O)C(C)=C(N2CC2)C1=O
  A: nt | B: -11% | C: nt | D: nt | E: nt | F: nt | G: nt | H: nt | I: nt
Compound: COC(COC(N)=O)C1=C(N2CC2)C(=O)C(C)=C(N2CC2)C1=O (stereo not given)
  A: 3% | B: -7% | C: 10µM* | D: 2.1µM* | E: nt | F: nt | G: -2% | H: -11% | I: 0.058µM*
Compound: CCCCn1c(CN2CCN(c3ccc(F)cc3)CC2)nc2c1c(=O)n(C)c(=O)n2C
  A: -1% | B: -4% | C: 2% | D: ? | E: -6% | F: -2% | G: nt | H: nt | I: nt
Compound: CC(=O)OC[C@]12CCC(C)=C[C@H]1O[C@@H]1[C@H](O)[C@@H](OC(C)=O)[C@@]2(C)[C@]12CO2
  A: -2% | B: 0% | C: ? | D: 0.018µM* | E: ? | F: -123% | G: 0% | H: -9% | I: 2.6µM*
Compound: CCOP(=O)(OCC)c1ccc(OP(=O)(c2cccc([N+](=O)[O-])c2)c2cccc([N+](=O)[O-])c2)cc1
  A: -1% | B: -5% | C: 0% | D: 0% | E: -3% | F: -2% | G: nt | H: nt | I: nt
Compound: C[n+]1ccc(-c2ccccc2)c2ccccc21
  A: 1% | B: -3% | C: -15% | D: 1.5µM* | E: nt | F: 4% | G: 0% | H: -1% | I: nt

# Random excerpt: two compounds from above.
# Assay codes: A = Nrf2 ARE act; B = GRP78 ERSR act; C = A549 tox-1; D = Nrf2 block; E = miR-21 reporter; F = Mito fusion yeast; G = FLuc enzyme inh; H = A549 tox-2; I = Nrf2 ARE inh
Compound: CCOC(=O)C1(c2ccccc2)CCCN(C)CC1 (stereo not given)
  A: nt | B: -2% | C: nt | D: nt | E: nt | F: nt | G: nt | H: nt | I: nt
Compound: CO[C@@H](COC(N)=O)C1=C(N2CC2)C(=O)C(C)=C(N2CC2)C1=O
  A: nt | B: -11% | C: nt | D: nt | E: nt | F: nt | G: nt | H: nt | I: nt
